According to patent US20040077531A1, “Use of galanin-like peptide” (priority 2001, published 2004):

Molecular target: T1, Rat GALR2 (Rattus norvegicus, UniProt O08726)
T1 construct: expressed in transfected cells; host or cells: CHO/dhfr- cells (ATCC), vector pAKKO-1.11; membrane fraction
T1 sequence (O08726 1-372): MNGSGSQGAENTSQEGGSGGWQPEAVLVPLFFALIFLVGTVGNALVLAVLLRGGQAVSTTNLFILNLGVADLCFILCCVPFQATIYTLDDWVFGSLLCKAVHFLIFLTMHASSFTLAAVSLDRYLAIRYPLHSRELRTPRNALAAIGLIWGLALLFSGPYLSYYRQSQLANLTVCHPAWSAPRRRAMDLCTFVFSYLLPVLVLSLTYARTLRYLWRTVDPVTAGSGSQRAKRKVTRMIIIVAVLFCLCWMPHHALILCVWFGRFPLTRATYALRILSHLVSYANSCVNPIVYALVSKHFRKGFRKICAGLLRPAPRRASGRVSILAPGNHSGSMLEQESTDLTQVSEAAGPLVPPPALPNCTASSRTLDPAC
Test: Galanin receptor binding experiment using [125I]rat galanin, GALR2 membrane fraction

IC50 [nM]	SMILES
1.4	CC(C)C[C@H](NC(=O)[C@H](CC(C)C)NC(=O)[C@H](Cc1ccc(O)cc1)NC(=O)CNC(=O)[C@H](C)NC(=O)[C@H](CO)NC(=O)[C@H](CC(N)=O)NC(=O)[C@H](CC(C)C)NC(=O)[C@@H](NC(=O)[C@H](Cc1c[nH]c2ccccc12)NC(=O)CNC(=O)CNC(=O)[C@H](CCCNC(=N)N)NC(=O)CNC(=O)[C@H](CCCNC(=N)N)NC(=O)[C@H](Cc1c[nH]cn1)NC(=O)[C@@H](NC(=O)[C@@H]1CCCN1C(=O)[C@H](C)N)C(C)C)[C@@H](C)O)C(=O)NCC(=O)N1CCC[C@H]1C(=O)N[C@H](C(=O)N[C@@H](CC(C)C)C(=O)N[C@@H](Cc1c[nH]cn1)C(=O)N1CCC[C@H]1C(=O)N1CCC[C@H]1C(=O)N[C@@H](CO)C(=O)N[C@@H](CCCNC(=N)N)C(=O)N[C@@H](C)C(=O)N[C@@H](CCC(=O)O)C(=O)NCC(=O)NCC(=O)NCC(=O)N[C@@H](CCCCN)C(=O)O)C(C)C [SEQ ID NO: 11 pig (1-34), pig-type ligand peptide (1-34)]
1.4	CC(C)C[C@H](NC(=O)[C@H](CC(C)C)NC(=O)[C@H](Cc1ccc(O)cc1)NC(=O)CNC(=O)[C@H](C)NC(=O)[C@H](CO)NC(=O)[C@H](CC(N)=O)NC(=O)[C@H](CC(C)C)NC(=O)[C@@H](NC(=O)[C@H](Cc1c[nH]c2ccccc12)NC(=O)CNC(=O)CNC(=O)[C@H](CCCNC(=N)N)NC(=O)CNC(=O)[C@H](CCCNC(=N)N)NC(=O)[C@H](Cc1c[nH]cn1)NC(=O)[C@@H](NC(=O)[C@@H]1CCCN1C(=O)[C@H](C)N)C(C)C)[C@@H](C)O)C(=O)NCC(=O)N1CCC[C@H]1C(=O)N[C@H](C(=O)N[C@@H](CC(C)C)C(=O)N[C@@H](Cc1c[nH]cn1)C(=O)N1CCC[C@H]1C(=O)N1CCC[C@H]1C(=O)N[C@@H](CO)C(=O)N[C@@H](CCCNC(=N)N)C(=O)N[C@@H](C)C(=O)N[C@@H](CCC(=O)O)C(=O)O)C(C)C [SEQ ID NO: 43 pig (1-30), pig-type ligand peptide (1-30)]
